The source of these data is ChEMBL document CHEMBL3877298, “Discovery of benzimidazole derivatives as modulators of mitochondrial function: A potential treatment for Alzheimer's disease” (Eur J Med Chem, 2017).

Protein sequences, listed by entry. Tags and fused reporters are not part of them.
UniProt P30536, whole entry: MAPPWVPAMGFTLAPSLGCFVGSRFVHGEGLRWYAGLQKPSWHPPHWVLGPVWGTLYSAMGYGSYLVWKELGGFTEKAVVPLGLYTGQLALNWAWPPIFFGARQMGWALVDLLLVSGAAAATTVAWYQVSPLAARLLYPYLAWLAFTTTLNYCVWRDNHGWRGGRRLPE

Structures are written as SMILES. pIC50, pKd: −log10 of the molar value.

The pIC50 is the IC50 on a negative log10 scale, so that one unit is a factor of ten. The low end stands for a large IC50, the high end for a small IC50. The pKd is −log10 of the Kd, conventionally taken in molar units.

Experiment [1] concerns the target T1, Translocator protein (Homo sapiens, UniProt P30536). The experiment is described as follows: Inhibition of TSPO (unknown origin). A digest of the protocol: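 Membranes from male Sprague-Dawley rat cerebral cortex were homogenised and washed in Tris-HCl (30 mM, pH 7.4), then washed in Tris-citrate (50 mM, pH 7.1). […] Bound and free ligand were separated by filtration through GF/C filters and counted by scintillation. […] Percent displacement gave the IC50, and Ki was calculated as IC50/(1+[L]/Kd).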

The target in experiment [2] is T1, Translocator protein. The experiment is described as follows: Binding affinity to recombinant human TSPO by SPR assay. In short, it runs like this: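 Biacore T200 at 25 °C with recombinant human TSPO (18 kDa) amine-coupled to a CM5 chip in 10 mM sodium acetate pH 4.5, giving 4000–6000 RU. Compounds from 10 mM DMSO stocks were diluted in PBS-P; running buffer held 1.0% DMSO. Five concentrations, 0.01–5 µM, were injected at 50 µL/min (120 s contact, 300 s dissociation), with blanks and regeneration. KD reported.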

In turn, `CCC(C)N(C)C(=O)c1cc2ccccc2c(-c2ccccc2Cl)n1` (configuration not stated) [PK-11195] had a pIC50 at Translocator protein [1] of 8.96. For the same compound, the pKd at Translocator protein [2] is 7.95.
